Data published in BindingDB's records for doi:10.1124/jpet.104.071282 (Neurocrine Biosciences, 2004).
Values joined by “and” are separate entries in the source; they are usually repeats but may differ in a detail not shown here. Identical values can stand only once.

By UniProt entry, the sequences of proteins in these tests, tags left out. Where a name states a change or a piece, a line headed by the entry shows the natural chain unless it says otherwise.
UniProt P62813: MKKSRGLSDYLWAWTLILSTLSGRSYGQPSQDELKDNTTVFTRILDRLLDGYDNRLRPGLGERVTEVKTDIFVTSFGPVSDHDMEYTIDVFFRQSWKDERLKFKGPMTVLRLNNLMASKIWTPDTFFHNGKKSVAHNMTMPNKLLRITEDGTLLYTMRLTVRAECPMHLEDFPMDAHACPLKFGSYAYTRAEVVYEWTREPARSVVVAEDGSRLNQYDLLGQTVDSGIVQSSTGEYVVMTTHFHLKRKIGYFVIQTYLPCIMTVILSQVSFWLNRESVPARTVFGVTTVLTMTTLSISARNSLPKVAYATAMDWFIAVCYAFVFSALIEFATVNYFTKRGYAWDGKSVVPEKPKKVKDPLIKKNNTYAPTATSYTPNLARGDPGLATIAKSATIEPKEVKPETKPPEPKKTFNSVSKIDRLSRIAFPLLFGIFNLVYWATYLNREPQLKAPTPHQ

Target: Gamma-aminobutyric acid receptor subunit alpha-1 (Rattus norvegicus, UniProt P62813)

With `CC(=O)N(C)c1cccc(-c2ccnc3c(C(=O)c4cccs4)cnn23)c1` [CAS_325715-02-4] the Ki was 1.2 nM and 1.8 nM.
